From ChEMBL document CHEMBL4665835, “Synthesis and pharmacological evaluation of 11-(1,6-dimethyl-1,2,3,6-tetrahydropyridin-4-yl)-5H-dibenzo[b,e][1,4]diazepines with clozapine-like receptor occupancy at dopamine D/D receptor” (Bioorg Med Chem Lett, 2020)

Sequences of proteins named here, by UniProt entry; tags and fusion partners are left off.
UniProt P14416, whole entry: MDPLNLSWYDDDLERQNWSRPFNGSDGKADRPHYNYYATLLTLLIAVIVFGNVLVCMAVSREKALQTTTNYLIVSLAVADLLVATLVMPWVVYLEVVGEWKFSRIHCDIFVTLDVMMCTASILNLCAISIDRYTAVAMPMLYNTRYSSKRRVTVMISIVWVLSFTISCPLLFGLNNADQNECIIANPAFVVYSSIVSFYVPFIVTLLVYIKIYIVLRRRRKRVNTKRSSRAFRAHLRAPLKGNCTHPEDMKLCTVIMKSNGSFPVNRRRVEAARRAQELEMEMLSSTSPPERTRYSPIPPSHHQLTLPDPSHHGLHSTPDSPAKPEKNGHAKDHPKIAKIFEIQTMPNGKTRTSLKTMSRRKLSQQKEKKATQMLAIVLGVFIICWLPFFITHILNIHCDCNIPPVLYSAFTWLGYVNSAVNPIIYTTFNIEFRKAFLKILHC

Molecular target: D(2) dopamine receptor (Homo sapiens, UniProt P14416)

- Ki: 28 nM
SMILES: CN1CCN([C@@H]2C[C@@H](c3ccccc3)c3ccc(Cl)cc32)CC1(C)C [ZICRONAPINE]
